Reference: patent US20160215306A1 (priority 2013, published 2016)

Key:
Cellobiase from A. niger = test: Cleavage of glucose from resveratrol glucosides by Cellobiase; type: biochemical; conditions: 5 - Cellobiase A. niger
Cellulase T. reesei = test: Cleavage of glucose from resveratrol glucosides by Cellulase T. reesei; type: biochemical

Measured: % cleavage in conditions tested

trans-resveratrol-4′-O-β-glucoside
✓ (✓ = >95%): Cellobiase from A. niger | Cellulase T. reesei; 3 - Cellulase T. reesei | Cellulase T. reesei; 3b - Cellulase T. resei
